The other results are listed elsewhere or left out.

This test deals with A. baumannii ATCC 17978. In words: relative growth (fraction of control); higher = less inhibition. To be noted: 50 µM.
The compound `COc1cc(CNC(=O)CCCC/C=C/C(C)C)ccc1O` yielded a relative growth of 0.732.

The compound `O=C(NCCCN1CCOCC1)c1ccc(Cl)cc1` displayed a relative growth of 1.1.

In the case of `CC(C)N1C(=O)C[C@@](C(=O)NCCN2CCOCC2)(c2ccc([N+](=O)[O-])cc2)[C@H]1c1ccc(CO)cc1`, the relative growth came to 0.984.

`Cl.NC1CCN(c2c(F)cc3c(=O)c(C(=O)O)cn(C4CC4)c3c2Cl)C1` (centres undefined) came in with a relative growth of 0.145.

For the compound `O=C(O)c1c2ccccc2cc2ccccc12`, the relative growth came to 1.11.

Turning to `c1ccc(-c2nc3ccccc3o2)cc1`, the relative growth amounted to 1.01.

As for `C=C1O[C@@](CO)(n2cnc3c(N)ncnc32)[C@H](O)[C@@H]1O`, the relative growth was found to be 0.288.

Regarding `C=CCN1C(=O)[C@@]2(O[C@@H](CCO)[C@H]([Si](C)(C)F)[C@H]2C)c2cc(N3C(=O)c4cccc5cccc3c45)ccc21`, the relative growth was found to be 0.967.

`COc1ccccc1S(=O)(=O)N[C@H]1CC[C@H](CCNC(=O)C2CC2)O[C@@H]1CO` yielded a relative growth of 1.08.

For `COC(=O)[C@H](Cc1ccccc1)NC(=O)[C@@H](N)CC(=O)O`, the relative growth was 0.894.

For `O=c1cc(-c2ccccc2)ss1`, the relative growth was 1.06.

For the compound `O=C(C[C@H]1C[C@H]2c3cc(NS(=O)(=O)c4ccc(F)cc4)ccc3O[C@H]2[C@H](CO)O1)NCc1ccccn1`, the relative growth amounted to 1.03.

Turning to `CC(=O)OC[C@H]1O[C@H](n2ccc(=O)[nH]c2=O)[C@@H](OC(C)=O)[C@@H]1OC(C)=O`, the relative growth came out at 1.06.

For the compound `CO[C@H]1C[C@@H](O[C@@H](O)[C@@H](O)[C@@H](O)[C@@H](O)[C@@H](O)CO)c2c(cc3cc(C)oc(=O)c3c2O)OC1=O`, the relative growth turned out to be 0.98.

For the compound `O=C(C[C@@H]1C[C@@H]2c3cc(NS(=O)(=O)c4ccc(F)cc4)ccc3O[C@@H]2[C@@H](CO)O1)NCc1ccccc1F`, the relative growth is 1.23.

`C[C@@H]1CN([C@@H](C)CO)S(=O)(=O)c2ccc(C3=CCCC3)cc2O[C@H]1CN(C)S(=O)(=O)c1cn(C)cn1` gave a relative growth of 1.04.

Compound `COCC#Cc1cnc2c(c1)C(=O)N([C@H](C)CO)C[C@H](C)[C@@H](CN(C)C(=O)CCN1CCCCC1)O2` displayed a relative growth of 1.12.

In turn, `COc1cc(O)c2c(=O)cc(C)oc2c1CC=C(C)C` returned a relative growth of 0.857.

In turn, `Cc1c(C)n2c3c(=O)[nH]c(=O)n(C)c3nc2n1C` returned a relative growth of 1.12.

The compound `O=C(C[C@@H]1C[C@@H]2c3cc(NS(=O)(=O)c4ccc(F)cc4)ccc3O[C@@H]2[C@H](CO)O1)NCCc1ccccc1` yielded a relative growth of 1.08.

`COc1oc(C(=O)NC2CCCCC2)c(-c2ccc(Cl)cc2)c1S(=O)(=O)c1ccc(Br)cc1` displayed a relative growth of 1.11.

Compound `Cc1nc2n(c(=O)c1CCN1CCC(c3noc4cc(F)ccc34)CC1)CCC[C@H]2O` gave a relative growth of 1.09.

For `COc1cc([C@H]2Oc3cc([C@H]4Oc5cc(O)cc(O)c5C(=O)[C@@H]4O)ccc3O[C@@H]2CO)ccc1O`, the relative growth is 1.01.

Compound `O=C(O)CNC(=O)c1cc2ccccc2[nH]1` showed a relative growth of 1.05.

Turning to `COc1ccc(NC(=O)Cn2c(=O)c3c(OC)ccnc3n(C)c2=O)c(OC)c1`, the relative growth came to 0.846.

Compound `C[C@@H]1CN([C@H](C)CO)S(=O)(=O)c2ccc(C#CCN(C)C)cc2O[C@@H]1CN(C)C` showed a relative growth of 0.917.

In the case of `O=C1C=C2C[C@@]3(O)COc4cc(O)ccc4C3=C2C=C1O`, the relative growth is 1.67.

Regarding `COc1cccc(CNC(=O)C[C@@H]2C=C[C@H](NC(=O)C3CCOCC3)[C@H](CO)O2)c1`, the relative growth came out at 0.968.

The compound `COC1=CC(=O)C(O)=C/C1=C\C=C\c1ccccc1` returned a relative growth of 1.05.

The compound `CCn1nnc(NC(=O)Cc2ccccc2)n1` registered a relative growth of 0.983.

In the case of `CC(C)Oc1ccc2c(=O)c(-c3ccccc3)coc2c1`, the relative growth is 1.15.

In turn, `CC(=O)Nc1c(I)cc(I)c(C(=O)O)c1I` had a relative growth of 1.05.

`CCCCC(CC)CCC(CC(C)C)OS(=O)(=O)[O-].[Na+]` (centres undefined) showed a relative growth of 1.21.

For `Cc1cc2cc3c(C)cc(=O)oc3c(C)c2o1`, the relative growth was 1.19.

In turn, `CC(=O)Nc1nnc(S(N)(=O)=O)s1` gave a relative growth of 1.01.

The compound `O=C(Cc1ccccn1)NCC[C@@H]1CC[C@H](NC(=O)CN2CCOCC2)[C@@H](CO)O1` came in with a relative growth of 1.22.

`O=C(C[C@H]1CC[C@H]2[C@@H](COC[C@@H](O)CN2Cc2cc(F)ccc2F)O1)N[C@@H]1CCN(Cc2ccccc2)C1` yielded a relative growth of 1.03.

In turn, `Cc1ccccc1OCC(=O)NCC(=O)O` registered a relative growth of 0.997.

In the case of `C[C@H]1CN([C@@H](C)CO)S(=O)(=O)c2ccc(C#CCN(C)C)cc2O[C@H]1CN(C)Cc1ccc(F)cc1`, the relative growth stood at 0.966.

On to `CC(=O)c1c(C)nn(CC(=O)O)c1C`, for which the relative growth was 0.866.

In the case of `COc1c(C)cccc1C(=O)N1CC[C@H](c2nn(CCN)c3ncccc23)C1`, the relative growth turned out to be 0.955.

Regarding `Cn1cnc(S(=O)(=O)N2C[C@H](O)COC[C@@H]3O[C@@H](CC(=O)N4CCN(c5ccccc5)CC4)CC[C@H]32)c1`, the relative growth was 1.08.

The compound `O=C(C[C@H]1C=C[C@H](NS(=O)(=O)c2ccccc2)[C@H](CO)O1)NCc1ccncn1` returned a relative growth of 1.14.

The compound `CC(COc1ccccc1)N[C@H](C)[C@H](O)c1ccc(O)cc1.Cl` (some centres undefined) displayed a relative growth of 0.801.

In turn, `O=C(CCCl)NCCc1ccccc1` had a relative growth of 1.04.

In the case of `O=C(C[C@H]1C[C@H]2c3cc(NS(=O)(=O)c4ccccc4)ccc3O[C@H]2[C@H](CO)O1)NC1CCCCC1`, the relative growth is 1.01.

`COCC(=O)Nc1ccc2c(c1)CC(=O)N2C`: the relative growth worked out at 1.08.

As for `COC(=O)c1ccc(C(=O)NN)cc1`, the relative growth came out at 0.867.

`O=C(C[C@@H]1C[C@H]2c3cc(NS(=O)(=O)c4ccc(F)cc4)ccc3O[C@H]2[C@H](CO)O1)NCc1cccc(F)c1` displayed a relative growth of 0.972.

`CCOC(=O)[C@H]1CSCCN1` had a relative growth of 0.982.

`O=C(C[C@H]1CC[C@@H](NC(=O)CN2CCOCC2)[C@@H](CO)O1)NCCc1ccccc1` gave a relative growth of 1.16.

Compound `CCCCCCNC(=O)n1cc(F)c(=O)[nH]c1=O` registered a relative growth of 0.742.

On to `CC(Cc1cccc(C(F)(F)F)c1)NCCOC(=O)c1ccccc1.Cl` (centres undefined), for which the relative growth turned out to be 0.904.

For the compound `CCCNC(=O)Nc1ccc2c(c1)OC[C@H](C)N(Cc1ccc(-c3ccccn3)cc1)C[C@H](C)[C@H](OC)CN(C)C2=O`, the relative growth came out at 1.12.

For `Cl.N=C(N)NC(=N)NCCc1ccccc1`, the relative growth was found to be 0.934.

`CN(CCO)S(=O)(=O)c1ccc2c(c1)C(=NO)c1cc(S(=O)(=O)N(C)CCO)ccc1-2` came in with a relative growth of 1.03.

As to `CCCOc1ccccc1-c1nc2[nH]nnc2c(=O)[nH]1`, the relative growth turned out to be 1.01.

Compound `CC(C)=CCC1=C(O)C(=O)c2ccccc2C1=O` returned a relative growth of 0.861.

For `COc1cccc(NC(=O)N[C@H]2C=C[C@@H](CC(=O)N3CCN(C)CC3)O[C@H]2CO)c1`, the relative growth worked out at 1.03.

For the compound `C[C@@H]1CN([C@H](C)CO)C(=O)c2ccccc2-c2ccccc2CO[C@@H]1CN(C)C(=O)Nc1ccccc1C(F)(F)F`, the relative growth came out at 0.817.

`Clc1ccc(C(Cn2ccnc2)OCc2c(Cl)cccc2Cl)c(Cl)c1.O=[N+]([O-])O` (centres undefined) gave a relative growth of 0.924.

As for `COc1ccc(S(=O)(=O)N(C)C[C@@H]2Oc3c(NC(=O)Nc4cccc5ccccc45)cccc3C(=O)N([C@H](C)CO)C[C@H]2C)cc1`, the relative growth came out at 1.03.

`Nc1nc(=O)n([C@@H]2CS[C@H](CO)O2)cc1F` registered a relative growth of 1.01.

As to `COc1ccc(Cl)cc1C(=O)NCCc1ccc(S(=O)(=O)NC(=O)NC2CCCCC2)cc1`, the relative growth was determined as 0.927.

On to `O=C1CCC[C@H]2[C@@H]3CCC[N+]4([O-])CCC[C@H](CN12)[C@H]34` (some centres undefined), for which the relative growth was determined as 0.881.

With `CSc1nc(=O)c(CCO)c(C)[nH]1`, the relative growth turned out to be 0.896.

Turning to `Cc1cccc(S(=O)(=O)N2C[C@H](O)COC[C@H]3O[C@H](CC(=O)NCCCN4CCOCC4)CC[C@@H]32)c1`, the relative growth is 0.805.

On to `COc1cccc(S(=O)(=O)N(C)C[C@@H]2Oc3cc(C#CCC(C)C)ccc3S(=O)(=O)N([C@H](C)CO)C[C@@H]2C)c1`, for which the relative growth is 1.33.

`CN1CCN(C(=O)C[C@@H]2CC[C@@H]3[C@H](COC[C@@H](O)CN3C(=O)Nc3cc(Cl)cc(Cl)c3)O2)CC1`: the relative growth was determined as 0.823.

Consider `COc1oc(C(=O)NC2CCCCC2)c(-c2ccc(Cl)cc2)c1S(=O)(=O)c1ccccc1NC(C)=O`, for which the relative growth was 0.898.

Consider `NS(=O)(=O)c1ccc(F)c([N+](=O)[O-])c1`, for which the relative growth came out at 0.887.

For the compound `CC(=O)N1CCc2c(sc(N)c2C(N)=O)C1`, the relative growth came out at 1.16.

For `COC1CC2CCC(C)C(O)(O2)C(=O)C(=O)N2CCCCC2C(=O)OC(C(C)CC2CCC(O)C(OC)C2)CC(=O)C(C)/C=C(\C)C(O)C(OC)C(=O)C(C)CC(C)/C=C/C=C/C=C/1C` (centres undefined), the relative growth amounted to 1.02.

With `Cl.N[C@@H](Cc1ccccc1)C(=O)O`, the relative growth was 0.888.

`O=C(CCCCCNC(=O)OC[C@]12N=C3SCC(=O)N3[C@H](c3ccccc3O1)[C@H]2COC(=O)c1ccccc1)NO` yielded a relative growth of 0.954.

`C[C@H]1CN([C@@H](C)CO)S(=O)(=O)c2ccc(C#CC3CC3)cc2O[C@H]1CN(C)Cc1ccc(F)cc1` registered a relative growth of 1.08.

As for `COCC#Cc1ccc2c(c1)O[C@H](CN(C)S(C)(=O)=O)[C@@H](C)CN([C@@H](C)CO)S2(=O)=O`, the relative growth is 0.985.

The compound `CN([C@@H](Cc1ccc(OS(=O)(=O)c2cccc3cnccc23)cc1)C(=O)N1CCN(c2ccccc2)CC1)S(=O)(=O)c1cccc2cnccc12` gave a relative growth of 1.1.

With `CC1=NN(c2ccc(C)c(C)c2)C(=O)/C1=N\Nc1cccc(-c2cccc(C(=O)O)c2)c1O`, the relative growth is 1.28.

As to `Cc1nnsc1-c1onc(C)c1C(N)=O`, the relative growth was 0.891.

`CC(C)N1C(=O)NC(=O)[C@@H]1CC(=O)O` registered a relative growth of 1.12.

Turning to `CN(C)CCCCNC(=O)[C@@H]1C[C@@H]2C(=O)N[C@@H](CCCC[N+](C)(C)C)C(=O)N2[C@@H]1c1cccc(OCCO)c1`, the relative growth turned out to be 1.03.

The compound `COCCCNC(=O)[C@]1(Cc2ccccc2N=[N+]=[N-])N=C(c2ccc(OCCCO)cc2)O[C@@H]1c1ccccc1` had a relative growth of 0.747.

The compound `NCCCCCNC(=O)[C@@H]1C[C@@H]2C(=O)N[C@@H](Cc3ccccc3)C(=O)N2[C@@H]1c1cccc(OCCO)c1` registered a relative growth of 1.11.

`O=c1cc(-c2ccccc2)oc2ccccc12` displayed a relative growth of 0.867.

Take `Cn1cnc(S(=O)(=O)N[C@@H]2CC[C@@H](CC(=O)Nc3ccccc3)O[C@H]2CO)c1`: the relative growth is 1.

`COc1cc(O)c2c(=O)c(OC)c(-c3ccc(OC)c(OC)c3)oc2c1` displayed a relative growth of 0.738.

Compound `CN(C)Cc1cn(CC[C@@H]2CC[C@@H](NS(=O)(=O)c3ccccc3)[C@@H](CO)O2)nn1` showed a relative growth of 1.07.

As to `COc1cc2c(cc1OC)-c1onc(-c3ccc(OCCO[Si](C(C)C)(C(C)C)C(C)C)cc3)c1CCCN(C[C@@H](C)OC(=O)NCCCCCC(=O)NO)CC2`, the relative growth is 0.821.

The values above are taken from published antibiotic growth screens (doi:10.1038/s41589-023-01349-8).
